{"source": "paper PMC6747225", "about": "(International Journal of Environmental Research and Public …, 2019)", "key": {"[1]": {"test_system": "catalase (CAT)", "details": "liver; SER alone 5 μg·L^−1 compared to control; seven days"}, "[2]": {"test_system": "glutathione S-transferase (GST)", "details": "liver; SER alone 5 μg·L^−1 compared to control; seven days"}}, "data": [{"smiles": "CN[C@H]1CC[C@@H](c2ccc(Cl)c(Cl)c2)c2ccccc21", "note": "[SER, sertraline]", "values": [{"measurement": "CAT activity", "setting": "[1]", "result": "significant induction"}, {"measurement": "GST activity", "setting": "[2]", "result": "not significantly changed"}]}]}
